# Measured values reported in PMC8237267 (Journal of Medicinal Chemistry, 2021).
# Target: T1, HDAC8 (Homo sapiens, UniProt Q9BY41)
# T1 construct: The full-length human HDACs were recombinantly expressed and purified from SF9 insect cells; host or cells: SF9 insect cells
# T1 sequence (Q9BY41 1-377): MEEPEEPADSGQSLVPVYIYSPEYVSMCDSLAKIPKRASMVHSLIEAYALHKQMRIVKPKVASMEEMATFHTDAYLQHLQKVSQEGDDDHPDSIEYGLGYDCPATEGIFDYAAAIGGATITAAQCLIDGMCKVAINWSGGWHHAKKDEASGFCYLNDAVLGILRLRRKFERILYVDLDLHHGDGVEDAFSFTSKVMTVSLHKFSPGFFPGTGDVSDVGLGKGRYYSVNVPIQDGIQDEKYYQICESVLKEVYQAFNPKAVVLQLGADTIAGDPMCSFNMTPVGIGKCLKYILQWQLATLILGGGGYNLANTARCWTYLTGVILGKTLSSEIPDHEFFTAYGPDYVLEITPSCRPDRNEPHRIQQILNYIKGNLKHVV
# Experiment: HDAC EMSA activity assay (Nanosyn)
# Assay type: biochemical
smiles,measurement,value
"COc1ccc(Cn2ccc3ccc(C(=O)NO)cc32)cc1 [PCI-34051, reference compound]",HDAC8 potency,nanomolar HDAC8 potency
same,selectivity toward HDAC8,120 fold
